Experimental data taken from patent publication US9879094B2, “Nucleic acid molecules encoding for BACE1 antibodies” (Genentech, Inc., priority 2010, dated 2018).

Amino acid sequences for entries named in this document (tags omitted). Residues count along the entry.
UniProt P56817, 22-457: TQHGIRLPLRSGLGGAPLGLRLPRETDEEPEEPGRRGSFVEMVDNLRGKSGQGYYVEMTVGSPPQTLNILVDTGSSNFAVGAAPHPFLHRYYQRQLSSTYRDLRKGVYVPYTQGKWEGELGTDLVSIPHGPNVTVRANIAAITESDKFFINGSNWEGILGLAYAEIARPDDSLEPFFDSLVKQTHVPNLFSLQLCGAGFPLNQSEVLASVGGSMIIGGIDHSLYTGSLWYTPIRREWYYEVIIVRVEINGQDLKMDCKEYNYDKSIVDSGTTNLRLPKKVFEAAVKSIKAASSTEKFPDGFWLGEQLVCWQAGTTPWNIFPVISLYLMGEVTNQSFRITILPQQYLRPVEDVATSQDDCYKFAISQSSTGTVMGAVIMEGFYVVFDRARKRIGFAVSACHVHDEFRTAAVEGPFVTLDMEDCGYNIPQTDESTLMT

Biological target: BACE1 (Homo sapiens, UniProt P56817)
Test: Competitive ELISA on YW412.8-coated plate
Type: binding
Settings: YW412.8 IgG coated, biotinylated hBACE1
Procedure: As an indirect method of determining the binding site on BACE1 of the anti-BACE1 antibodies of the invention, a competitive ELISA was performed. Briefly, antibody YW412.8 IgG (1 μg/ml) was coated onto NUNC 96 well Maxisorp immunoplates overnight at 4° C. and blocked at room temperature for 1 hour with blocking buffer PBST (PBS and 1% BSA and 0.05% Tween 20). Serial dilutions of anti-BACE1 antibody YW412.8 or an hBACE1 binding peptide were incubated with a predetermined amount of biotinylated hBACE1 and incubated at room temperature for 60 minutes. The serial dilutions were then added to a YW412.8-coated plate and incubated at room temperature for 30 minutes. Subsequently, the plates were washed with wash buffer (PBS with 0.05% T-20) and developed by the addition of streptavidin labeled with horseradish peroxidase (HRP) for 30 minutes at room temperature. […] HRP-conjugated streptavidin binding to captured biotinylated hBACE1 was measured at a wavelength of 630 nm using standard techniques.
To determine the optimal concentration of biotinylated target protein used for the above competition ELISA assay, NUNC 96 well Maxisorp immunoplates were coated and blocked as described above. […] The sub-saturating concentration of biotinylated hBACE1 was determined from the curve fitting and applied to the competition ELISA from above.

- competition with YW412.8 for binding to hBACE1: No competition
Substance: OM99-2 [reference compound]
